In this test the test system is RPMI 8226 multiple myeloma cells. In words: RPMI 8226 cell viability and proliferation (trypan blue, MTT, 3H-thymidine). It is filed as cell-based, human. The conditions noted are these: 3H-thymidine uptake, drug titration (FIGS. 19-25, 31, 32). The method, then: The human plasmacytoma (multiple myeloma) cell line, RPMI 8226 (American Type Culture Collection, Manassas, Va.), was cultured in RPMI 1640 supplemented with 10 mM HEPES, 1 mM sodium pyruvate, 4.5 g/L glucose, 1.5 g/L bicarbonate and 20% FBS (non-heat inactivated).
Cell proliferation was assayed by three methods—Trypan Blue Exclusion was used to quantify the number of viable cells in culture; 3-(4,5-dimethylthiazol-2-yl)-2,5-diphenyl tetrazolium bromide (MTT) reduction was used to assay mitochondrial activity (and thus cell viability); and ^3H-Thymidine uptake was employed to assay for active DNA synthesis.
Three separate indicators of cell proliferation were employed to study the effects of 5-HT receptor modulating agents on the human multiple myeloma cell line, RPMI 8226. Cells were plated at 4 separate densities and were treated with LY53587 (an antagonist of the 5-HT2A/2B/2C receptors) at a range of concentrations. The exclusion of trypan blue dye was used as an indicator of cell viability. Cell numbers were then plotted against the concentration of drug added.
MTT reduction was also used as an indicator of cell viability (more specifically, mitochondrial activity). Absorbance values at OD570 were then plotted against drug concentration. […]

As to `OCCN1CCN(CCCN2c3ccccc3Sc3ccc(C(F)(F)F)cc32)CC1` [Fluphenazine], the “growth / proliferation of RPMI 8226 cells” value was “inhibits T cell responses, as well as the growth of multiple myeloma cell lines”. For the same molecule, the “growth / proliferation of RPMI 8226 cells” value (listed as fluphenazine) is given as “clear dose-response curve”.

The values above are taken from patent US20060135415A1, “Immunomodulation and effect on cell processes relating to serotonin family receptors and the blood-brain barrier” (priority 2002, published 2006).
